In PMC6155021, “Ancient and modern anticonvulsants act synergistically in a KCNQ potassium channel binding pocket” (Nature Communications, 2018):

Assays:
Format in all cases: cell-based
KCNQ2 = KCNQ2 (Homo sapiens, UniProt O43526); assay: Two-electrode voltage-clamp of homomeric KCNQ2 in Xenopus oocytes; conditions: KCNQ2
Text: (§1) cRNA transcripts encoding human KCNA1, KCNQ1, KCNQ2, KCNQ3, KCNQ4, or KCNQ5 were generated by in vitro transcription using the T7 polymerase message machine kit (Thermo Fisher Scientific), after vector linearization, from cDNA sub-cloned into plasmids incorporating X. laevis β-globin 5′ and 3′ UTRs flanking the coding region to enhance translation and cRNA stability. cRNA was quantified by spectrophotometry. Mutant cDNAs were generated by site-directed mutagenesis using a QuikChange kit according to manufacturer’s protocol (Stratagene, San Diego, CA) and corresponding cRNAs prepared as above. Defolliculated stage V and VI X. laevis oocytes (Ecocyte Bioscience, Austin, TX) were injected with Kv channel α subunit cRNAs (10 ng total per oocyte). Oocytes were incubated at 16 °C in Barth’s saline solution (Ecocyte) containing penicillin and streptomycin, with daily washing, for 3–5 days prior to two-electrode voltage-clamp (TEVC) recording.
(§2) Oocytes were placed in a small-volume oocyte bath (Warner) and viewed with a dissection microscope. Chemicals were sourced from Sigma. Bath solution was (in mM): 96 NaCl, 4 KCl, 1 MgCl2, 1 CaCl2, 10 HEPES (pH 7.6). […] MTX (DMSO), sorbic acid (ethanol), and glutaconic acid (molecular grade H2O) were stored at −20 °C as 1 M stocks. Oleamide was stored as a 1 mM stock in ethanol at 4 °C. Palmitic acid was conjugated with bovine serum albumin as a 1 mM stock and stored at −20 °C. All compounds were diluted to working concentrations each experimental day. All compounds were introduced to the recording bath via gravity perfusion at a constant flow of 1 ml/min for 3 min prior to recording. Pipettes were of 1–2 MΩ resistance when filled with 3 M KCl. Currents were recorded in response to pulses between −80 and +40 mV at 20 mV intervals, or a single pulse to +40 mV, from a holding potential of −80 mV, to yield current–voltage relationships, current magnitude, and for quantifying activation rate. TEVC data analysis was performed with Clampfit10.2 (Molecular Devices) and Graphpad Prism software (GraphPad, San Diego, CA, USA); values are stated as mean ± SEM. Normalized tail currents were plotted versus prepulse voltage and fitted with a single Boltzmann function:1 g=A1-A2/1+expV12-Vy+A2, where g is the normalized tail conductance, A1 is the initial value at −∞, A2 is the final value at +∞, V1/2 is the half-maximal voltage of activation, and Vs the slope factor. Activation and deactivation kinetics were fitted with single-exponential functions.

KCNQ2/3 channels = KCNQ2/3 channels (Homo sapiens, UniProt O43525+O43526); assay: Two-electrode voltage-clamp of KCNQ2/3 channels expressed in Xenopus laevis oocytes
Text: as §1, §2

[1] = molecular target: KCNQ2-W236L/KCNQ3-W265L channels (Homo sapiens, UniProt O43525+O43526, W236L/W265L); assay: Two-electrode voltage-clamp of W236L-Q2/W265L-Q3 mutant channels in Xenopus oocytes; conditions: for Non-normalized tail current V0.5 / Normalized tail current V0.5 / Slope: W236L-Q2/W265L-Q3
Text: as §1, §2

CC(C)CC(=O)O [IVA, isovaleric acid]
Non-normalized tail current V0.5 (KCNQ2; 100 µM): -52.2 ± 5.6 mV
Normalized tail current V0.5 (KCNQ2; 100 µM): -52.6 ± 1.8 mV
Slope (KCNQ2; 100 µM): 7.8 ± 1.8 mV
Non-normalized tail current V0.5 (KCNQ2; 500 µM): -50.4 ± 2.1 mV
Normalized tail current V0.5 (KCNQ2; 500 µM): -50.4 ± 1.5 mV
Slope (KCNQ2; 500 µM): 6.6 ± 0.9 mV
Non-normalized tail current V0.5 (KCNQ2; 5 mM): -49.5 ± 1.4 mV
Normalized tail current V0.5 (KCNQ2; 5 mM): -49.9 ± 1.4 mV
Slope (KCNQ2; 5 mM): 6.3 ± 0.8 mV
shift of activation V0.5 (KCNQ2; IVA, concentration not given): –9 mV
KCNQ2/3 current increase at −60 mV (KCNQ2/3 channels): ~ fivefold
effect on voltage dependence of KCNQ2/3 activation (initial screen) (KCNQ2/3 channels; 100 µM, tail currents at −30 mV): negative-shifted
EC50 (KCNQ2/3 channels; EC50, KCNQ2/3, current at −60 mV, calculated from dose responses): 228 ± 0.4 µM
Non-normalized tail current V0.5 (KCNQ2/3 channels; KCNQ2/3, 1 µM): -43.6 ± 5.1 mV
Normalized tail current V0.5 (KCNQ2/3 channels; KCNQ2/3, 1 µM): -43.8 ± 1.9 mV
Slope (KCNQ2/3 channels; KCNQ2/3, 1 µM): 5.7 ± 2.1 mV
τ act, -40 mV (KCNQ2/3 channels; KCNQ2/3, 1 µM): 494 ± 48 ms
τ deact, -80 mV (KCNQ2/3 channels; KCNQ2/3, 1 µM): 159 ± 12 ms
Non-normalized tail current V0.5 (KCNQ2/3 channels; KCNQ2/3, 10 µM): -44.2 ± 4.8 mV
Normalized tail current V0.5 (KCNQ2/3 channels; KCNQ2/3, 10 µM): -45.1 ± 2.2 mV
Slope (KCNQ2/3 channels; KCNQ2/3, 10 µM): 5.4 ± 1.8 mV
τ act, -40 mV (KCNQ2/3 channels; KCNQ2/3, 10 µM): 474 ± 37 ms
τ deact, -80 mV (KCNQ2/3 channels; KCNQ2/3, 10 µM): 170 ± 6 ms
Non-normalized tail current V0.5 (KCNQ2/3 channels; KCNQ2/3, 100 µM): -45.4 ± 4.7 mV
Normalized tail current V0.5 (KCNQ2/3 channels; KCNQ2/3, 100 µM): -46.8 ± 1.8 mV
Slope (KCNQ2/3 channels; KCNQ2/3, 100 µM): 5.4 ± 1.1 mV
τ act, -40 mV (KCNQ2/3 channels; KCNQ2/3, 100 µM): 442 ± 22 ms
τ deact, -80 mV (KCNQ2/3 channels; KCNQ2/3, 100 µM): 192 ± 14 ms
Non-normalized tail current V0.5 (KCNQ2/3 channels; KCNQ2/3, 500 µM): -48.7 ± 5.2 mV
Normalized tail current V0.5 (KCNQ2/3 channels; KCNQ2/3, 500 µM): -50.1 ± 2.4 mV
Slope (KCNQ2/3 channels; KCNQ2/3, 500 µM): 5.6 ± 1.2 mV
τ act, -40 mV (KCNQ2/3 channels; KCNQ2/3, 500 µM): 406 ± 18 ms
τ deact, -80 mV (KCNQ2/3 channels; KCNQ2/3, 500 µM): 219 ± 21 ms
Non-normalized tail current V0.5 (KCNQ2/3 channels; KCNQ2/3, 5 mM): -50.1 ± 5.2 mV
Normalized tail current V0.5 (KCNQ2/3 channels; KCNQ2/3, 5 mM): -51.2 ± 2.1 mV
Slope (KCNQ2/3 channels; KCNQ2/3, 5 mM): 5.4 ± 1.1 mV
τ act, -40 mV (KCNQ2/3 channels; KCNQ2/3, 5 mM): 414 ± 23 ms
τ deact, -80 mV (KCNQ2/3 channels; KCNQ2/3, 5 mM): 241 ± 22 ms
shift of activation V0.5 (KCNQ2/3 channels; KCNQ2/3, IVA, concentration not given): −11 mV
Non-normalized tail current V0.5 ([1]; 1 µM): -55.8 ± 7.5 mV
Normalized tail current V0.5 ([1]; 1 µM): -57.6 ± 1.1 mV
Slope ([1]; 1 µM): 6.3 ± 1.4 mV
Non-normalized tail current V0.5 ([1]; 10 µM): -53.7 ± 7.4 mV
Normalized tail current V0.5 ([1]; 10 µM): -55.7 ± 1.7 mV
Slope ([1]; 10 µM): 4.9 ± 1.6 mV
Non-normalized tail current V0.5 ([1]; 100 µM): -53.7 ± 7.7 mV
Normalized tail current V0.5 ([1]; 100 µM): -56.5 ± 2.0 mV
Slope ([1]; 100 µM): 4.7 ± 2.4 mV
Non-normalized tail current V0.5 ([1]; 500 µM): -51.1 ± 6.1 mV
Normalized tail current V0.5 ([1]; 500 µM): -54.6 ± 1.8 mV
Slope ([1]; 500 µM): 5.6 ± 1.4 mV
Non-normalized tail current V0.5 ([1]; 5 mM): -51.9 ± 8.4 mV
Normalized tail current V0.5 ([1]; 5 mM): -56.3 ± 3.7 mV
Slope ([1]; 5 mM): 3.5 ± 3.5 mV
KCNQ2/3-W236L/W265L current at −60 mV ([1]; at any concentration): did not increase
